Patent publication US20050049309A1, “Regulation of HIF protein levels via deubiquitination pathway” (priority 2003, published 2005)
Like-named read-outs stand apart in the source and are kept apart here.

Columns and labels:
HIF-1β protein = HIF-1β protein level in cells; conditions: normoxic or hypoxic conditions
HIF-1 transactivation = experiment: Hypoxia Response Element (HRE) luciferase reporter assay
VEGF protein = experiment: VEGF ELISA in cell lysates and medium
HIF-1α [1] = experiment: HIF-1α degradation (cycloheximide block, pulse-chase analysis); conditions: HT-29 cells, hypoxia, cycloheximide treated, PX-478 25 M
hypoxic cells = conditions: in the presence of a reducing enzyme; U.S. Pat. No. 5,602,278; cited from earlier work
PC-3 xenografts = experiment: PC-3 xenografts, tumor HIF-1α level and ubiquitination; conditions: data not shown
HIF-1α [2] = experiment: Subcellular localization of HIF-1α (nuclear/cytoplasmic fractions, immunofluorescence); conditions: HT-29 cells
HIF-1α [3] = experiment: Ubiquitination of HIF-1α in cells (immunoprecipitation and Western blotting); assay type: cell-based, human
HIF-1α mRNA = HIF-1α mRNA level in cells; conditions: normoxic or hypoxic conditions
[4] = system: HT-29 colon tumor xenografts; experiment: HT-29 colon tumor xenografts in scid mice, tumor protein levels by Western blotting; conditions: HT-29 xenografts in scid mice, 100 mg/kg, 2 hr
HIF-1α protein = HIF-1α protein levels in cancer cells by Western blotting of nuclear extracts
HT-29 xenografts = conditions: 100 mg/kg; Welsh et al., Eur. J. Cancer 2002; cited from earlier work
HT-29 cells = experiment: Levels of HSP-90, HSP-90 client proteins and other ubiquitination-controlled proteins by Western blotting

In the case of `N[C@@H](Cc1ccc([N+]([O-])(CCCl)CCCl)cc1)C(=O)O`, the “Change in HIF-1β protein” value (HIF-1β protein) is reported as “no change”, the “HIF-1 transactivation (HRE luciferase)” value (HIF-1 transactivation; MCF-7 and HT-29 cells, 16 hours) is reported as “significantly decreased” and the “HIF-1 transactivation (HRE luciferase)” value (HIF-1 transactivation; RCC4 and RCC4/VHL cells, p=<0.01) is reported as “significantly inhibited”. The “Hypoxia induced expression of VEGF protein” value (VEGF protein; MCF-7 and HT-29 cells, 16 hours, hypoxic conditions, p=<0.01, dose-dependent) was “significantly decreased”, the VEGF protein production (VEGF protein; normoxic conditions) was “not inhibited” and the “Rate of HIF-1α breakdown” value (HIF-1α [1]) was “increased the rate of HIF-1α breakdown”. The “Killing of hypoxic cells in a reducing environment” value (hypoxic cells) was “preferentially kill hypoxic cells”, the “HIF-1α protein levels in tumor” value (PC-3 xenografts) was “decrease” and the “HIF-1α ubiquitination in tumor” value (PC-3 xenografts) was “increase”. The “Cellular localization of HIF-1α (immunofluorescence)” value (HIF-1α [2]; hypoxia 16 hours, 25M PX-478) was “does not affect the cellular localization of HIF-1α”, the “HIF-1α levels in nuclear and cytoplasmic fractions” value (HIF-1α [2]; hypoxic conditions, 16 hour) was “decreased HIF-1α levels in both subcellular fractions” and the “Ubiquitination of HIF-1α with proteasome inhibited” value (HIF-1α [3]; HT-29 cells, hypoxia, 10 M LLnV, PX-478 in absence or presence of cycloheximide) was “promoted a shift towards highly ubiquitinated species of HIF-1α”. The “Total cell protein ubiquitination” value (HIF-1α [3]; HT-29 total cell extracts) was “without affecting”, the “Change in HIF-1α mRNA” value (HIF-1α mRNA) was “no change” and the “Changes in AKT, Raf-1, Src-1, histone H1, cyclin B1 or mutant p53 in tumor” value [4] was “No changes”. For the same compound, the HIF-1α protein (HIF-1α protein; HCT116+/+ (wild type p53) and HCT116−/− (p53 deleted) cells) was “decreased HIF-1α protein in both cell lines”, the “HIF-1α proline hydroxylation relative to total HIF-1α levels” value (HIF-1α protein; HT-29 cells, hydroxy-Pro564 antibody) was “did not increase” and the IC50 (HIF-1α protein; read-out: IC50 for decrease of HIF-α levels, RCC4/VHL cells, hypoxic conditions) was 13.5 µM. For the same compound, the IC50 (HIF-1α protein; read-out: IC50 for decrease of HIF-α levels, RCC4 cells (lacking pVHL), hypoxic conditions) was 6.9 µM, the IC50 (HIF-1α protein; read-out: IC50 for decrease of HIF-α levels, RCC4 cells, normoxic conditions) was 5.1 µM and the IC50 (HIF-1α protein; read-out: IC50 for inhibition of hypoxia-induced increase in HIF-1α protein, HT-29 colon cancer cells, hypoxia 1% oxygen, 16 hours, mean±S.E., n=3) was 17.4 µM. The IC50 (HIF-1α protein; read-out: IC50 for inhibition of hypoxia-induced increase in HIF-1α protein, MCF-7 breast cancer cells, hypoxia 1% oxygen, 16 hours, mean±S.E., n=3) was 4 µM, the IC50 (HIF-1α protein; read-out: IC50 for inhibition of hypoxia-induced increase in HIF-1α protein, PC-3 human prostate cancer cells, hypoxia 1% oxygen, 16 hours, mean±S.E., n=3) was 3.9 µM and the “Growth delay of HT-29 xenografts” value (HT-29 xenografts) was “significant growth delay”. For the same compound, the “Levels of HSP-90 and HSP-90 client proteins AKT, c-Src and Raf-1” value (HT-29 cells) was “does not affect” and the “Levels of cyclin B1, histone H1 or mutant p53” value (HT-29 cells) was “no effect”.
